Data taken from patent US20170173134A1 (priority 2011, published 2017).

Experiments:
[1] = test system: MNU-induced urinary bladder carcinoma; test: Second experiment (Table 5): histological assessment, MNU-induced bladder cancer; assay type: in vivo, rats; settings: Table 5 experiment, intravesical
Procedure: The therapeutic effect in urinary bladder cancer in animals was assessed by histological evaluation of the tissues. The criteria for assessing normality of the tissues examined for all the experiments using the same animal model, that is, the experiments reported in Table 4, Table 5, Table 6-A, Table 6-B, Table 6-C and Table 6-D are: normal tissue, flat hyperplasia, papillary hyperplasia.
Flat hyperplasia and papillary hyperplasia are reactive changes of an inflammatory nature, though benign, and their occurrence in the experiments for assessment of new drugs in animals affected with cancer, indicates a reversal of the cancer process to non-cancerous stages. […]
[…] animals (n=50) were used in the experiment. The therapeutic effect was assessed through histological assessment of tissues, and the toxicological effect of the compounds, through assessment of the presence or absence of urinary bleeding also called hematuria. […]
For the histological examinations, sections (2 μm) of the tissue of the urinary bladder were cut using microtome Zeiss, mounted on microscope slides, and stained with hematoxylin-eosin (HE), for subsequent pathology assessment, quantification of cellular changes and comparison between control and treatment groups. […]

[2] = in vivo; cited from earlier work

## CO[C@@]12[C@H](COC(N)=O)C3=C(C(=O)C(C)=C(N)C3=O)N1C[C@@H]1N[C@@H]12 [Mitomycin C]
[1]
  therapeutic effectiveness / efficacy: 40%
[2]
  Skin rash, (%) patients affected: <10%
